Amino acid sequences for entries named in this document (tags omitted). Residues count along the entry.
UniProt P06276, 29-602: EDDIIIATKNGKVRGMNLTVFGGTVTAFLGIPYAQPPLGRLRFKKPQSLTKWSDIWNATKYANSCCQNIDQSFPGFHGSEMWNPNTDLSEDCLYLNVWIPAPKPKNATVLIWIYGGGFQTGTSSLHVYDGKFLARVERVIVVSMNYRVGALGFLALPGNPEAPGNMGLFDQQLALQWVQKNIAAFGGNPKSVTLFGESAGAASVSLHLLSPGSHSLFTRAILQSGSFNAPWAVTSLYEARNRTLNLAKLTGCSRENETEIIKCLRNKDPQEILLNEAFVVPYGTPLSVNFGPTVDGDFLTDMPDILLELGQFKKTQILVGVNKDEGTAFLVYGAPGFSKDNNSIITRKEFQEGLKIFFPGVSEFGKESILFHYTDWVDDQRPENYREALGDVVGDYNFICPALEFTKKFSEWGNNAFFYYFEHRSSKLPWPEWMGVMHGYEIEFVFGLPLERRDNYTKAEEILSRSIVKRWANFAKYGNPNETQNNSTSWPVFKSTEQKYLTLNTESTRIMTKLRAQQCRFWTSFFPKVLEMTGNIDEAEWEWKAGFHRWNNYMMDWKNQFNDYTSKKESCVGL

This assay has as its target T1, huBChE (Homo sapiens, UniProt P06276).
T1 construct: made in house
The assay can be described thus: biochemical. Type of assay: biochemical.
Regarding `COCCN(CC1CCCN(C2Cc3ccccc3C2)C1)S(=O)(=O)c1ccc2ccccc2c1` (racemic) [compound 3, (±)-N-((1-(2,3-dihydro-1H-inden-2-yl)piperidin-3-yl)methyl)-N-(2-methoxyethyl)naphthalene-2-sulfonamide], the IC50 – broadly, the midpoint of a concentration-inhibition curve – was found to be 53 ± 4 nM.

Compound `COCCN(CC1CCCN(C2Cc3ccccc3C2)C1)S(=O)(=O)c1cccc(N)c1` (racemic) [compound 4, (±)-3-amino-N-((1-(2,3-dihydro-1H-inden-2-yl)piperidin-3-yl)methyl)-N-(2-methoxyethyl)benzenesulfonamide] had an IC50 of 197 ± 8 nM.

`COCCCN(CC1CCCN(Cc2ccccc2)C1)S(=O)(=O)c1ccc2ccccc2c1` (racemic) [compound 5, (±)-N-((1-benzylpiperidin-3-yl)methyl)-N-(3-methoxypropyl)naphthalene-2-sulfonamide]: the midpoint of inhibition, the IC50, lay at 14.4 ± 0.8 nM and the “fold higher IC50 against huBChE than for compound 2” value was 3 fold.

Turning to `O=S(=O)(NCC1CCCN(Cc2ccccc2)C1)c1ccc2ccccc2c1` (racemic) [compound 7, (±)-N-((1-benzylpiperidin-3-yl)methyl)naphthalene-2-sulfonamide], the IC50 turned out to be 56.9 ± 9.8 nM.

`CN(CC1CCCN(Cc2ccccc2)C1)S(=O)(=O)c1ccc2ccccc2c1` (racemic) [compound 8, (±)-N-((1-benzylpiperidin-3-yl)methyl)-N-methylnaphthalene-2-sulfonamide] displayed an IC50 of 25 ± 3.8 nM.

In the case of `COCCCN(CC1CCN(Cc2ccccc2)CC1)S(=O)(=O)c1ccc2ccccc2c1` [compound 6, N-((1-benzylpiperidin-4-yl)methyl)-N-(3-methoxypropyl)naphthalene-2-sulfonamide], 19.3 ± 3.7 nM corresponded to half-maximal inhibition (IC50).

In the case of `COCCN(CC1CCN(Cc2ccccc2)CC1)S(=O)(=O)c1ccc2ccccc2c1` [compound 75, N-((1-benzylpiperidin-4-yl)methyl)-N-(2-methoxyethyl)naphthalene-2-sulfonamide], the IC50 was 39.4 ± 2.8 nM.

Consider `COCCN(CC1CCN(C2Cc3ccccc3C2)CC1)S(=O)(=O)c1ccc2ccccc2c1` [compound 84, N-((1-(2,3-dihydro-1H-inden-2-yl)piperidin-4-yl)methyl)-N-(2-methoxyethyl)naphthalene-2-sulfonamide], for which the IC50 stood at 52.5 ± 2 nM.

With `COCCCN(CC1CCN(C2Cc3ccccc3C2)CC1)S(=O)(=O)c1ccc2ccccc2c1` [compound 85, N-((1-(2,3-dihydro-1H-inden-2-yl)piperidin-4-yl)methyl)-N-(3-methoxypropyl)naphthalene-2-sulfonamide], the IC50 was 71.2 ± 1.9 nM.

Consider `O=S(=O)(NCC1CCN(Cc2ccccc2)CC1)c1ccc2ccccc2c1` [compound 86, N-((1-benzylpiperidin-4-yl)methyl)naphthalene-2-sulfonamide], for which the IC50 stood at 195 ± 17 nM.

The record behind these values is article PMC5175178, “Development of an in-vivo active reversible butyrylcholinesterase inhibitor” (Scientific Reports, 2016).
